Experimental data from ChEMBL document CHEMBL4321872, “Engineering a Potent, Long-Acting, and Periphery-Restricted Oxytocin Receptor Agonist with Anorexigenic and Body Weight Reducing Effects” (J Med Chem, 2020).

Biological target: T1, Oxytocin receptor (Homo sapiens) (UniProt P30559)
T1 sequence (whole entry): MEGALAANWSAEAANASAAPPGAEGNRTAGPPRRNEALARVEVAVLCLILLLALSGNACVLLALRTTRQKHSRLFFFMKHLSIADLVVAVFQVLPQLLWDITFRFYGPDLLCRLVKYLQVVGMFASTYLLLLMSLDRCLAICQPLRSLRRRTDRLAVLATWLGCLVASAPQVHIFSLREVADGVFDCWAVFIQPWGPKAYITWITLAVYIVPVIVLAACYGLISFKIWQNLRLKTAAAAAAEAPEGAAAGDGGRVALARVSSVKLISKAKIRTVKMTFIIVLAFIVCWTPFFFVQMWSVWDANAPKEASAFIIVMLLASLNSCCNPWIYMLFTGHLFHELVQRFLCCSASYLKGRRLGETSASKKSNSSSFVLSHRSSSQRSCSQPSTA
Assay: Agonist activity at recombinant human Gi/Go-coupled OTR expressed in CHOK1 cells assessed as induction of beta-arrestin recruitment measured after 90 mins in presence of 10% FBS by pathhunter assay relative to oxytocin
Assay type: cell-based

## CC[C@H](C)[C@@H]1NC(=O)[C@H](Cc2ccc(OC)cc2)NC(=O)CCCSC[C@@H](C(=O)N2CCC[C@H]2C(=O)N[C@@H](CC(C)C)C(=O)NCC(N)=O)NC(=O)[C@H](CC(N)=O)NC(=O)[C@H](CCC(N)=O)NC1=O [CARBETOCIN]
  %max: 37%
